Measurements from publication PMC5630632, “Assessing inhibitors of mutant isocitrate dehydrogenase using a suite of pre-clinical discovery assays” (Scientific Reports, 2017).

Biological target: T1, R172Q mIDH2 (Homo sapiens, UniProt P48735, R172Q)
T1 sequence (P48735 40-452 R172Q): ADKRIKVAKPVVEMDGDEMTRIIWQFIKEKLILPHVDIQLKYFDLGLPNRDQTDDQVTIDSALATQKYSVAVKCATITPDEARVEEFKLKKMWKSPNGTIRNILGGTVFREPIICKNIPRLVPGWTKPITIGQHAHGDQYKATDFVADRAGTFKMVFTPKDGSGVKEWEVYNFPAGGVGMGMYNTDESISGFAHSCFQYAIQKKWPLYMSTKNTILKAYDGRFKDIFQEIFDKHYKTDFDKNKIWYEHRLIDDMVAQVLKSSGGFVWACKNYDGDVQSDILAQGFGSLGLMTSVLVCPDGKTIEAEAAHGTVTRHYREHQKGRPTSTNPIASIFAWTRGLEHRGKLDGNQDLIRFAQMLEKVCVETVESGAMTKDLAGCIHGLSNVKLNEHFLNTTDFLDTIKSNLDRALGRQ
Assay: mIDH2-R172Q enzyme assay (Reaction Biology), diaphorase/resazurin coupled

**Q.** With O=C(Nc1cccc(C(F)(F)F)c1)Nc1cc(S(=O)(=O)NC2CC2)ccc1-c1ccsc1 [AGI-6780] as the compound, how does the EC50 read?
**A.** Its EC50 is 9 nM.
